# Laboratory results taken from PMC3447978, “High-Throughput 1,536-Well Fluorescence Polarization Assays for α1-Acid Glycoprotein and Human Serum Albumin Binding” (PLoS ONE, 2012).
# By UniProt entry, the sequences of proteins in these tests, tags left out. Residues count along the entry.
# UniProt P02768, 25-609: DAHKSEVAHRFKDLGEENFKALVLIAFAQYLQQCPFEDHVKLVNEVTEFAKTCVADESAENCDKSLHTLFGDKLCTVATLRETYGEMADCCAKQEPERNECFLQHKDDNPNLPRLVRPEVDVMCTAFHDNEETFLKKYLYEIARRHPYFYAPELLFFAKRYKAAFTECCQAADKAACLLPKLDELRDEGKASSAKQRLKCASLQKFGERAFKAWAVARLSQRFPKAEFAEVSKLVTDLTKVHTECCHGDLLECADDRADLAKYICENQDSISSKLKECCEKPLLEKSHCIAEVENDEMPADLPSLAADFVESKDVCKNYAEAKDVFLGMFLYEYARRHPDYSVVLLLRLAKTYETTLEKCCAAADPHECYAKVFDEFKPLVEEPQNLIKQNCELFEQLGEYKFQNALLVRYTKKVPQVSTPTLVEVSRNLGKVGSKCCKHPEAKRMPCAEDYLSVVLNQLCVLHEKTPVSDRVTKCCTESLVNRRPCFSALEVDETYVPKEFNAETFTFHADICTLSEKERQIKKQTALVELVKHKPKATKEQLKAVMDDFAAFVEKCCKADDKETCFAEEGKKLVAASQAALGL
# Columns and labels:
# [1] = biological target: T1, human serum albumin (HSA) (Homo sapiens, UniProt P02768); experiment: HSA 1,536-well fluorescence polarization displacement assay (dansyl sarcosine probe, Sudlow Site II)
# [2] = biological target: T1, human serum albumin (HSA); experiment: HSA 96-well fluorescence polarization displacement assay (dansyl sarcosine probe, Sudlow Site II)
# HSA protein-coated beads = HSA protein-coated beads (Homo sapiens, UniProt P02768); experiment: HSA protein-coated bead assay with HPLC analysis; type: binding; details: compound 50 µM
smiles,measurement,setting,value
"CN(C)CCCN1c2ccccc2Sc2ccc(Cl)cc21 [Chlorpromazine, chlorpromazine]",IC50,[1],10100 µM
same,IC50,[2],303 µM
same,Kd,HSA protein-coated beads,34.4 µM
